For one compound, IC50 results are on record in ChEMBL document CHEMBL1157614, “5-Cyclic amine-3-arylsulfonylindazoles as novel 5-HT6 receptor antagonists” (J Med Chem, 2010).

Sequences of proteins named here, by UniProt entry; tags and fusion partners are left off.
UniProt P50406, whole entry: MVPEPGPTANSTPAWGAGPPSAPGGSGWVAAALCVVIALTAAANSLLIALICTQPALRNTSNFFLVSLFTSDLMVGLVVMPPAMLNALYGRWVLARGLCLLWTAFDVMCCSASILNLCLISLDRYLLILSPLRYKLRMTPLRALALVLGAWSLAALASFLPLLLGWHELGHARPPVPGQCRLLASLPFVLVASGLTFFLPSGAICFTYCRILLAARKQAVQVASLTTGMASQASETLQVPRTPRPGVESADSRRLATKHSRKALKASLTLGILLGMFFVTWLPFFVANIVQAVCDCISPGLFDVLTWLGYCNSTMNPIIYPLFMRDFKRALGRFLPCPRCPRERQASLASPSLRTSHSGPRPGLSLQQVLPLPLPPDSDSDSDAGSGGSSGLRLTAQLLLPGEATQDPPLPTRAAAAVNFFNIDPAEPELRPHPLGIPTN

The target of the test is 5-hydroxytryptamine receptor 6 (Homo sapiens, UniProt P50406). Nature of the test: Antagonist activity at human cloned 5HT6 receptor expressed in human HeLa cells assessed as intracellular cAMP formation by RIA. The class given is functional, cell-based. (In general: Changes in cAMP serve as a functional read-out for many G protein-coupled receptors.)

One may read the IC50 as the concentration that gives 50% inhibition. For the compound `NC1CCN(c2ccc3[nH]nc(S(=O)(=O)c4cccc5ccccc45)c3c2)CC1`, the concentration for half-maximal inhibition (IC50) stood at 0.028 µM.
